Data on 27 molecules can be found in PubChem BioAssay AID1625 (Sanford-Burnham Center for Chemical Genomics, 2009).

The structures appear in SMILES notation. The entries are a selection whose mix differs from that of the whole data set. Calls of active or inactive are those of the source.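 The calls were made as follows: active = z-score above 3 at 5 µM with at least 500 cells counted in the well; inconclusive = wells under 500 cells, flagged as cytotoxic or low count; inactive = the rest.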

The nature of the assay: insulin promoter activators in MIN6 cells, imaging, high-content screening, mouse beta cells (AID 1625). As to conditions: MIN6 insulin promoter-GFP reporter, at 5 µM, hits give high values.
Consider `COc1ccc(C(=O)NCC2(N3CCCCC3)CCCCC2)c(OC)c1OC`, for which the z-score was inactive: -0.92.
The result for `N#CC1(Nc2ccccc2)CCN(Cc2ccccc2)CC1` reads inactive: -0.41; that for `O=C(OC1CN2CCC1CC2)C1c2ccccc2Oc2ccccc21` (configuration not stated), inactive: 0.16; that for `O=C(NCC1(N2CCOCC2)CCCCC1)c1cc2ccccc2o1`, inactive: -1.13.
On to `COc1ccc(NC2CCN(CCc3ccccc3)CC2)c(OC)c1`, for which the z-score is inactive: -1.39.
With `CCOc1ccc(C)cc1CN(CCCl)CCCl`, the z-score was inactive: 0.23.
Take `Cc1ccc(OCC(C)C)c(CN(CCCl)CCCl)c1`: the z-score is inactive: -0.18.
As for `O=C(NCC1(N2CCCCC2)CCCCC1)c1cccc([N+](=O)[O-])c1`, the figure is inactive: -0.22.
`N#CC1(Nc2ccccc2)CCN(CCc2ccccc2)CC1`: the z-score is inactive: -0.46.
As for `COc1ccc(NC2CCN(C(=O)OC(C)(C)C)CC2)cc1`, the z-score was inactive: 1.64.
As for `CN1CCN(CCOC(=O)C(O)(c2ccccc2)c2ccccc2)CC1`, the figure is inactive: 0.18.
On to `CN(C)c1cccc(C(=O)NCC2(N3CCCCC3)CCCCC2)c1`, for which the z-score was inactive: -0.66.
As for `COc1ccc(CN(CCCl)CCCl)cc1Cl`, the z-score was inactive: 2.52.
Take `CC(C)c1ccc(NC2CCN(C(=O)OC(C)(C)C)CC2)cc1`: the z-score was inactive: -0.2.
As for `COc1ccc(C(=O)NCC2(N3CCOCC3)CCCCC2)cc1OC`, the z-score is inactive: -0.19.
The result for `O=C(OC1CN2CCC1CC2)C1c2ccccc2C=Cc2ccccc21` (configuration not stated) reads inactive: -0.57.
In the case of `N/C(=N\O)c1c(N)no[n+]1[O-]`, the z-score is inactive: 0.11.
Regarding `N#Cc1ccc(C(=O)NCC2(N3CCCCC3)CCCCC2)cc1`, the z-score is inactive: 0.06.
As to `c1ccc(CN2CCC(Nc3ccccc3)CC2)cc1`, the z-score was inactive: 0.53.
For `Fc1ccccc1NC1CCN(Cc2ccccc2)CC1`, the z-score was inactive: -0.15.
`CN(C)c1ccc(C(=O)NCC2(N3CCCCC3)CCCCC2)cc1`: the z-score was inactive: 0.19.
Take `CCN1CCC(Nc2cccc(F)c2)CC1`: the z-score is inactive: 0.16.
The result for `CC(C)(C)OC(=O)N1CCC(Nc2ccccc2)CC1` reads inactive: -0.32; that for `CCOc1ncccc1C(=O)NCC1(N2CCOCC2)CCCCC1`, inactive: -0.06.
For the molecule `CCCOc1ccc(C)cc1CN(CCCl)CCCl`, the z-score was inactive: 0.18.
For `CCC(CO)(C(=O)OC1CN2CCC1CC2)c1ccccc1` (configuration not stated), the z-score is inactive: -0.06.
In the case of `COc1cc(OC)cc(C(=O)NCC2(N3CCOCC3)CCCCC2)c1`, the z-score is inactive: -0.49.
